Source: PubChem BioAssay (Tox21)
Several values for one entry are separate records, joined by “and”; a condition that tells them apart may be missing. Equal entries are not always repeated. This is a selection; strong and weak results do not stand in their true shares. Inconclusive results are not listed. Activity calls are given as the source filed them. Calls follow the shape of the dose curve; as a rule, active = well fitted inhibition curve with a large enough effect in the signal ratio in the repeat runs (not every such curve was filed as active); inconclusive = weak or mixed curves, or effect the other way; inactive = no such curve, though single readings can be large or run the other way; the % refers to the signal ratio.

Amino acid sequences for entries named in this document (tags omitted). A change or cut given only in a name is not applied to a line headed by its entry.
UniProt P11473: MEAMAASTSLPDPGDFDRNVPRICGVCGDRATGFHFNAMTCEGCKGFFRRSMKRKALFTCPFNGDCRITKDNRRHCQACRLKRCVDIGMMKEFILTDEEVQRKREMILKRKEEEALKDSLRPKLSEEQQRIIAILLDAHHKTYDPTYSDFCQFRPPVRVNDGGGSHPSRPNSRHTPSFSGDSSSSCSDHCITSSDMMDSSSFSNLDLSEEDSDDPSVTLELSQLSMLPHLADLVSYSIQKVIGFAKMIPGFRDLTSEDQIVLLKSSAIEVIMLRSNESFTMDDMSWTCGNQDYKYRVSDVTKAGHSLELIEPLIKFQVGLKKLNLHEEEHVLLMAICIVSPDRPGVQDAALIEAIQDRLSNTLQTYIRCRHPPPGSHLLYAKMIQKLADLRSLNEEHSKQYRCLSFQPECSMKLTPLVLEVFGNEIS

Each compound was assayed against Vitamin D3 receptor (Homo sapiens) (UniProt P11473) (assay: qHTS assay to identify small molecule antagonists of the vitamin D receptor (VDR) signaling pathway (AID 743223)). Settings: VDR-UAS-bla HEK293T, beta-lactamase FRET ratio, 16 h; at 61 µM (top of the series) unless noted.
Text: U.S. Tox21 Program National Center for Advancing Translational Sciences [NCATS] NIH Chemical Genomics Center [NCGC] U.S. Environmental Protection Agency [EPA] National Institutes of Environmental Health Sciences [NIEHS] National Toxicology Program [NTP] U.S. Food and Drug Administration [FDA] Tox21 Assay Overview: The vitamin D receptor (VDR), a member of nuclear hormone receptor superfamily, plays a critical role in calcium homeostasis and bone metabolism. It is also involved in cell differentiation and growth, and thrombogenicity.
Tox21 Assay Protocol Summary: VDR-bla cells were dispensed at 2,000 cells/5 uL of assay medium per well into black wall/clear-bottom 1536-well plates using a Multidrop Combi (Thermo Fisher Scientific, Waltham, MA) dispenser. After the assay plates were incubated at a 37C and 5% CO2 for 4 h, 23 nL of compounds dissolved in DMSO, positive controls or DMSO only was transferred to the assay plate by a Pintool station (Kalypsys, San Diego, CA), followed by addition of 1 uL of 1alpha, 25-Dihydroxy Vitamin D3 (3 nM, final concentration in the wells) using a Bioraptr Flying Reagent Dispenser (FRD) workstation (Beckman Coulter, Indianapolis, IN). The plates were incubated at 37C and 5% CO2 for 16 h, and then 1 uL of LiveBLAzerTM B/G FRET substrate was added using a Bioraptr FRD. The plates were incubated at room temperature for 2 h and fluorescence intensity was measured by an Envision plate reader (PerkinElmer, Shelton, CT).
% is scaled to controls: 0 for no effect and ±100 for the full control effect.

Structure (SMILES) | activity change, negative = inhibition
O=[P+](Oc1ccccc1)Oc1ccccc1 | inactive: 6.64%
ClP(Cl)c1ccccc1 | inactive: 0.105%
Cc1cc([N+](=O)[O-])cc([N+](=O)[O-])c1O | inactive: -11.5%
CCOP(=S)(CC)Sc1ccccc1 (stereo not given) | inactive: 1.82%
CN(C(=O)Cc1cccc2occc12)[C@H]1CC[C@@]2(CCCO2)C[C@@H]1N1CCCC1 | inactive: 0.141%
CCOC(=O)Cl | inactive: -0.447%
CN(C(=O)Cc1ccccc1)[C@H]1CC[C@@]2(CCCO2)C[C@@H]1N1CCCC1 | inactive: 14.2%
CN(N=O)C(=N)N[N+](=O)[O-] | inactive: 20.5%
COP(=S)(Cl)OC | inactive: 21.1% [at 78.8 µM]
NC(=O)Nc1ccc([As](=O)(O)O)cc1 | inactive: 4.66% and inactive: -2.04%
CCNC(C)Cc1ccc2c(c1)OCO2 (stereo not given) | inactive: 7.35% [at 78.8 µM]
CCCCC(CC)CO[P+](=O)OCC(CC)CCCC (stereo not given) | inactive: 2.33%
CN(C(=O)Cc1ccc(Cl)c(Cl)c1)[C@H]1CC[C@@]2(CCCO2)C[C@@H]1N1CCCC1 | inactive: 3.99%
CCCCO[P+](=O)OCCCC | inactive: -1.69%
O=P(Cl)(Cl)c1ccccc1 | inactive: 20.9%
